# Experimental data reported in ChEMBL document CHEMBL3853357, “Discovery of a Series of 5,11-Dihydro-6H-benzo[e]pyrimido[5,4-b][1,4]diazepin-6-ones as Selective PI3K-δ/γ Inhibitors” (ACS Med Chem Lett, 2016).
# Legend:
# Type in all cases: functional, cell-based
# [1] = Antiproliferative activity against human Jurkat cells after 3 days by CellTiter-Glo assay; settings: 72 h
# [2] = Antiproliferative activity against human MOLT4 cells after 3 days by CellTiter-Glo assay; settings: MOLT-4, 72 h
# [3] = Antiproliferative activity against human MV4-11 cells after 3 days by CellTiter-Glo assay; settings: MV4-11, 72 h
# [4] = Antiproliferative activity against human MOLM14 cells after 3 days by CellTiter-Glo assay; settings: MOLM-14, 72 h
smiles,measurement,setting,value
CC[C@H](Nc1ncnc2[nH]cnc12)c1nc2cccc(F)c2c(=O)n1-c1ccccc1 [IDELALISIB],IC50,[1],7.9 µM
same,IC50,[2],10.6 µM
same,IC50,[3],6.3 µM
same,IC50,[4],3.6 µM
